An excerpt weighted towards active compounds, which were near 1.7% of everything screened.
CDK5 p35 inh – CDK5/p35 (human) kinase inhibition | Q00535+Q15078 | Recombinant CDK5/p35, ADP-Glo luminescence, 60 min | inhibition, % at 10 µM | 0.01% of 330,000 active;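 active = highest replicate inhibition of at least 50% and at least 75% of replicates reaching 50%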;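 also: plate controls were DMSO neutral control for no effect and GW8510 at 10 µM for full effect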
DYRK1A inh – Dyrk1A (rat) kinase inhibition; 0.43% of 310,000 active; AID 504441; ADP-Glo luminescence, NFATc1 peptide; inhibition, % at 12.5 µM; in the data active = inhibition above about 50%;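 also: plate controls were vehicle with enzyme for no effect and no enzyme for full effect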
dFosB act-1 – mouse delta FosB homodimer activation; purified delta FosB, TAMRA-CDK5 oligo fluorescence polarization; percent of positive-control signal above neutral wells; activation, % at 25 µM; 0.99% of 340,000 active;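 active = mean activation above about 17%, with every replicate also reaching it, limit read from the data, passing the limit was not always enough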
CAL PDZ FP-1 – human CAL PDZ-peptide interaction inhibition; 0.02% of 330,000 active; Q9HD26; purified CAL PDZ, TMR-peptide fluorescence polarization, 1 h; inhibition, % at 20 µM;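 active = highest replicate inhibition of at least 40%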;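 also: plate controls were DMSO neutral control wells for no effect and unlabeled competitor peptide control wells for full effect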
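System: purified tagged CAL PDZ domain construct (CerCALP). Schedule: 1 h incubation at room temperature before polarization reading. Medium: 25 mM sodium phosphate pH 7.4, 150 mM NaCl, TCEP, IgG, Thesit. Read-out: percent inhibition from loss of millipolarization. Measured by: FP readout, S and P plane fluorescence. Probe or stimulus: fluorescent TMR peptide probe.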
CAL PDZ FP-2 – blocks peptide binding to the human CAL PDZ domain | inhibition, % at 24.9 µM | purified CAL PDZ, TMR-peptide fluorescence polarization, 1 h | 0.92% of 300,000 active;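 active = mean inhibition of at least 30% with at least half of replicates also reaching 30%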;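 also: 0% = DMSO neutral control and 100% = excess unlabeled competitor peptide PRC23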
Yeast UUG start – alters start codon recognition fidelity in yeast. S. cerevisiae UUG-firefly luciferase reporter, luminescence/redox ratio. 350,000 tested, 0.13% active. activity score, % at 18.7 µM. AID 602363;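 active means replicate mean at a twofold rise or more, about +100% in these data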;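 further: firefly luciferase made from a UUG start codon reports start codon fidelity; reporter light over untreated wells divided by growth signal over untreated wells; some hits fall short of that in this replicate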
dFosB act-2 – enhances mouse delta FosB homodimer binding to DNA; purified delta FosB, TAMRA-CDK5 oligo fluorescence polarization; normalised: neutral wells 0, positive control 100; shares compounds with dFosB act-1; 2,400 tested, under 10 active; AID 588690; activation, % at 24.9 µM;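 active = highest replicate activation at or above 34% and every replicate reaching that threshold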;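 also: higher polarization means more probe DNA bound by delta FosB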
The depositor's hits bear a star; nt = no result.

Abbreviations – A = CDK5 p35 inh; B = DYRK1A inh; C = dFosB act-1; D = CAL PDZ FP-1; E = CAL PDZ FP-2; F = Yeast UUG start; G = dFosB act-2
> O=C(Nc1ccc(-c2nc3ccccc3[nH]2)cc1)c1cccc(N2C(=O)CCC2=O)c1
  A: 0; B: 3; C: 36*; D: -4; E: 0; F: nt; G: 2

> O=C(Nc1ccc(F)cc1)c1cccc(N2C(=O)c3ccccc3C2=O)c1
  A: 0; B: -7; C: 35*; D: -1; E: nt; F: nt; G: 5

> O=C(Nc1ccccc1-c1nc2ccccc2[nH]1)c1ccc(N2C(=O)CCC2=O)cc1
  A: 0; B: 0; C: 3; D: -1; E: -2; F: nt; G: nt

> O=C(Nc1ccc(S(=O)(=O)Nc2nccs2)cc1)c1cccc(N2C(=O)c3ccccc3C2=O)c1
  A: 2; B: nt; C: -13; D: -3; E: -8; F: nt; G: nt

> O=C(CNC(=O)c1cccc(N2C(=O)c3ccccc3C2=O)c1)Nc1ccc(F)c(F)c1
  A: -3; B: nt; C: 33*; D: 0; E: -9; F: -14; G: 1

> O=C(c1ccncc1)N1C[C@H]2[C@@H](c3ccccc31)[C@H](CO)N2C(=O)Nc1ccccc1Cl
  A: nt; B: nt; C: nt; D: nt; E: nt; F: -9; G: nt

> CCCNC(=O)Nc1ccc2c(c1)OC[C@@H](C)N(Cc1ccc(-c3ccccn3)cc1)C[C@@H](C)[C@@H](OC)CN(C)C2=O
  A: nt; B: nt; C: nt; D: nt; E: nt; F: -2; G: nt

> CCc1cccc(OCC2Cn3c(nc4c3c(=O)[nH]c(=O)n4C)O2)c1 (configuration not stated)
  A: 1; B: 0; C: 20*; D: 0; E: -1; F: -14; G: 3

> CCc1cccc(OCC2Cn3c(nc4c3c(=O)n(C)c(=O)n4C)O2)c1 (configuration not stated)
  A: 0; B: 2; C: -7; D: -3; E: nt; F: 3; G: nt

> CC(C)CC#Cc1ccc2c(c1)O[C@@H](CN(C)C(=O)c1cccc(F)c1)[C@@H](C)CN([C@H](C)CO)S2(=O)=O
  A: nt; B: nt; C: nt; D: nt; E: nt; F: -6; G: nt

> O=C(O)c1nn(CC(=O)N2CCN(S(=O)(=O)c3ccc(Cl)cc3)CC2)c(=O)c2ccccc12
  A: 2; B: 7; C: 30*; D: -2; E: 0; F: -12; G: 4

> O=C(Nc1cccc(S(=O)(=O)N2CCCCC2)c1)c1c2c(nc3ccccc13)CCN(Cc1ccccc1)C2
  A: -1; B: -2; C: 52*; D: -4; E: -5; F: nt; G: -2

> O=C(Cn1nc(C(=O)O)c2ccccc2c1=O)Nc1cccc(S(=O)(=O)N2CCCCCC2)c1
  A: 5; B: 3; C: 32*; D: 0; E: -1; F: nt; G: -1

> CC(C)C(=O)Nc1ccc2c(c1)C(=O)NC2=O
  A: 1; B: 14; C: -1; D: nt; E: -5; F: nt; G: nt

> O=C(Nc1ccc2c(c1)C(=O)NC2=O)c1ccc(Cl)s1
  A: -1; B: -2; C: 54*; D: -1; E: nt; F: -13; G: 0

> Cc1ccc(C(=O)Nc2ccc3c(c2)C(=O)NC3=O)cc1
  A: -1; B: 2; C: 35*; D: -1; E: nt; F: -18; G: 5

> O=C(Nc1ccc2c(c1)C(=O)NC2=O)c1cc(Cl)ccc1Cl
  A: -1; B: 11; C: -1; D: 0; E: nt; F: -6; G: nt

> COC(=O)c1ccc(C(=O)Nc2ccc3c(c2)C(=O)NC3=O)cc1
  A: 1; B: -9; C: 86*; D: -1; E: -5; F: -13; G: 6

> O=C(Nc1ccc2c(c1)C(=O)NC2=O)c1cccc(Cl)c1
  A: -2; B: 2; C: 25*; D: 0; E: nt; F: -13; G: 1

> Cc1cccc(C(=O)Nc2ccc3c(c2)C(=O)NC3=O)c1
  A: -2; B: 4; C: 2; D: 0; E: nt; F: -13; G: nt

> Cc1csc(NC(=O)Cc2c(F)cccc2Cl)n1
  A: 0; B: -5; C: -6; D: -1; E: -6; F: -11; G: nt

> Cc1csc(Nc2nc(N)c(C(=O)Nc3cc(Cl)ccc3F)o2)n1
  A: 0; B: 0; C: 20*; D: -1; E: -3; F: -27; G: 2

> O=C(COC(=O)/C=C/c1ccc([N+](=O)[O-])cc1)Nc1ccc(F)cc1
  A: -1; B: nt; C: 19*; D: -1; E: nt; F: -17; G: 5

> CCN(CC)Cc1cc2[nH]c3c4ccc(Cl)cc4ncc3c2cc1OC
  A: 0; B: nt; C: 24*; D: -5; E: nt; F: -8; G: 6

> O=c1[nH]c(-c2ccc3c(c2)OCO3)nc2c1sc(=S)n2-c1ccccc1
  A: -2; B: -6; C: -6; D: nt; E: -2; F: nt; G: nt

(list continues)
Abbreviations – A = CDK5 p35 inh; B = DYRK1A inh; C = dFosB act-1; D = CAL PDZ FP-1; E = CAL PDZ FP-2; F = Yeast UUG start; G = dFosB act-2
> O=c1[nH]c(-c2ccc(F)cc2)nc2c1sc(=S)n2-c1ccccc1
  A: 1; B: -2; C: 24*; D: -6; E: -4; F: -22; G: 3

> COc1ccc(C(C)=O)cc1CSc1nc2ccccc2c(=O)n1-c1ccccc1
  A: 0; B: -4; C: -3; D: -1; E: -8; F: -6; G: nt

> COc1ccc(C(C)=O)cc1CSc1nc2ccccc2c(=O)n1-c1cccc(C)c1
  A: nt; B: -5; C: 25*; D: -1; E: -6; F: -16; G: 5

> O=C(NNC(=O)c1ccc(Cl)s1)c1csc(N2CCOCC2)n1
  A: 1; B: -1; C: 21*; D: -1; E: -4; F: nt; G: -2

> O=C(NNC(=O)c1csc(N2CCOCC2)n1)c1ccc(Cl)nc1
  A: 0; B: -4; C: 1; D: -1; E: -1; F: -10; G: nt

> COc1cc2c3nnc(-c4ccc(F)cc4)c-3cn(Cc3ccc(F)cc3)c2cc1OC
  A: 0; B: 14; C: 37*; D: 1; E: nt; F: -3; G: -9

> COc1ccc(CCNC(=O)CSc2nnc(-c3ccc(F)cc3)c3ccccc23)cc1OC
  A: 0; B: -3; C: -5; D: -2; E: -2; F: nt; G: nt

> CC(C)C[C@@H]1NC(=O)[C@@H]2C[C@H](C(=O)NCc3ccc(F)cc3)[C@H](c3ccc(O)cc3)N2C1=O
  A: nt; B: nt; C: nt; D: nt; E: nt; F: -1; G: nt

> CC(=O)Nc1cc2cc(NS(=O)(=O)c3ccc(Cl)cc3)ccc2oc1=O
  A: -1; B: -5; C: 93*; D: -1; E: nt; F: 9; G: 1

> CN(C)Cc1cn(CC[C@@H]2CC[C@H](NC(=O)Nc3ccccc3F)[C@H](CO)O2)nn1
  A: nt; B: nt; C: nt; D: nt; E: nt; F: -9; G: nt

> C[C@@H]1CCCCO[C@@H](CN(C)C(=O)Nc2ccc(C(F)(F)F)cc2)[C@@H](C)CN([C@H](C)CO)C(=O)c2cc(NC(=O)CCCCCC(=O)Nc3ccccc3N)ccc2O1
  A: nt; B: nt; C: nt; D: nt; E: nt; F: -4; G: nt

> O=C(COC(=O)c1ccc2c(c1)C(=O)N(c1cccc3ncccc13)C2=O)c1ccc(Cl)cc1
  A: -2; B: 0; C: 65*; D: -2; E: -2; F: -50; G: 2

> Cc1ccc(C(=O)COC(=O)c2ccc3c(c2)C(=O)N(c2cccc4ncccc24)C3=O)cc1
  A: 1; B: -2; C: 49*; D: 0; E: 3; F: nt; G: 5

> NCC[C@H]1CC[C@@H](NS(=O)(=O)Cc2ccccc2)[C@@H](CO)O1
  A: nt; B: nt; C: nt; D: nt; E: nt; F: -12; G: nt

> Cc1cc(C(=O)N/N=C/c2cccc(OC(=O)c3cccc(Br)c3)c2)n[nH]1
  A: 0; B: 0; C: 30*; D: -1; E: -1; F: -12; G: 3

> COc1ccc2nc(NC(=O)c3cccc(-c4cc5ccccc5oc4=O)c3)sc2c1
  A: -2; B: 5; C: 44*; D: -3; E: -1; F: nt; G: 0

> COc1ccc(C(=O)Nc2cccc(-c3cc4ccccc4oc3=O)c2)cc1[N+](=O)[O-]
  A: -1; B: 11; C: 52*; D: 0; E: nt; F: nt; G: 5

> COc1cc(NC(=O)c2ccc(Cl)cc2Cl)ccc1-c1cc2ccccc2oc1=O
  A: 1; B: -6; C: 24*; D: 0; E: nt; F: -9; G: 6

> COc1cc(NC(C)=O)ccc1-c1cc2ccccc2oc1=O
  A: 1; B: -4; C: -10; D: -2; E: -2; F: nt; G: nt

Ordered by the number under CAL PDZ FP-2 (descending): some entries from above.
mol	CDK5 p35 inh	DYRK1A inh	dFosB act-1	CAL PDZ FP-1	CAL PDZ FP-2	Yeast UUG start
COc1ccc2nc(NC(=O)c3cccc(-c4cc5ccccc5oc4=O)c3)sc2c1	-2	5	44*	-3	-1	nt
O=C(COC(=O)c1ccc2c(c1)C(=O)N(c1cccc3ncccc13)C2=O)c1ccc(Cl)cc1	-2	0	65*	-2	-2	-50
COc1ccc(C(C)=O)cc1CSc1nc2ccccc2c(=O)n1-c1ccccc1	0	-4	-3	-1	-8	-6
